# Assay results taken from PubChem BioAssay AID720511 (Broad Institute, 2013).
# This is a selection; strong and weak results do not stand in their true shares. The source made the active and inactive calls.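 Rule for the calls: active = mean added fluorescence quench of at least 8% versus neutral control, with both replicates also reaching 8%; inconclusive = only one of the mean or replicate conditions met; inactive = mean below 8% and not both replicates reaching 8%.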
# Assay: F508del CFTR correction, initial screen, CFBE line, single point (AID 720511);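 note: corrector assay measuring rescue of mutant channel to the surface after 24 h compound exposure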
# Details: CFBE cells, YFP halide quenching, at 7.58 µM, stronger effect = higher value, % fluorescence drop versus neutral controls, stimulated with forskolin plus potentiator P3
row,SMILES,activity (quench increase)
1,Cc1cc(C)cc(N(C(=O)c2ccccc2)C2CCN(C(=O)OC(C)(C)C)CC2)c1,inactive: 0.773%
2,O=C(NCC1(N2CCCCC2)CCCCC1)c1ccc(Cl)nc1,inactive: -2.73%
3,O=c1[nH]c2ccccc2n1C1CCN(C(c2ccccc2OC(F)(F)F)c2nnnn2C2CCCCC2)CC1 (stereo not drawn),inactive: 3.52%
4,CCCCn1nnnc1C(c1ccc(OC)cc1)N1CCC(n2c(=O)[nH]c3ccccc32)CC1 (stereo not drawn),inactive: 2.89%
5,CCOC(=O)N1CCC(Nc2ccc(OC)cc2)CC1,inactive: 2.47%
6,COc1ccc(Cl)cc1C(=O)NCC1(N2CCOCC2)CCCCC1,inactive: -1.98%
7,O=C(NCC1(N2CCCCC2)CCCCC1)c1ccc(Cl)s1,inactive: 2.32%
8,N#CC1(Nc2ccccc2)CCN(Cc2ccccc2)CC1,inactive: 0.342%
9,O=C(OC1CN2CCC1CC2)C1c2ccccc2Oc2ccccc21 (stereo not drawn),inactive: -0.525%
10,O=c1[nH]c2ccccc2n1C1CCN(C(c2cc3ccccc3o2)c2nnnn2C2CCCCC2)CC1 (stereo not drawn),inactive: -4.54%
11,CCCCn1nnnc1C(CC)N1CCC(n2c(=O)[nH]c3ccccc32)CC1 (stereo not drawn),inactive: 3.8%
12,O=C(NCC1(N2CCCCC2)CCCCC1)c1cccs1,inactive: -4.97%
13,CCCCn1nnnc1C(c1cccs1)N1CCC(n2c(=O)[nH]c3ccccc32)CC1 (stereo not drawn),inactive: 0.865%
14,O=C(NCC1(N2CCCCC2)CCCCC1)c1ccc(=O)[nH]c1,inactive: -1.31%
15,COc1ccc(C(=O)NCC2(N3CCCCC3)CCCCC2)c(OC)c1OC,inactive: -0.34%
16,CC(C)(C)OC(=O)N1CCC(N(C(=O)c2ccccc2)c2ccc(F)cc2)CC1,inactive: 2.63%
17,CCC(c1nnnn1C1CCCC1)N1CCC(n2c(=O)[nH]c3ccccc32)CC1 (stereo not drawn),inactive: 0.383%
18,COc1ccc(C(=O)NCC2(N3CCCCC3)CCCCC2)cc1,inactive: -1.98%
19,Cc1cccc(NC2(C#N)CCN(Cc3ccccc3)CC2)c1,inactive: 0.42%
20,CSc1ccccc1C(=O)NCC1(N2CCCCC2)CCCCC1,inactive: 0.27%
21,O=c1[nH]c2ccccc2n1C1CCN(C(c2ccccc2)c2nnnn2C2CCCCC2)CC1 (stereo not drawn),inactive: 2.18%
22,O=c1[nH]c2ccccc2n1C1CCN(C(c2cccc3ccccc23)c2nnnn2C2CCCC2)CC1 (stereo not drawn),inactive: 2.03%
23,CCOC(=O)N1CCC(Nc2cccc(C)c2)CC1,inactive: 2.85%
24,COc1cc(C(=O)NCC2(N(C)C)CCCCC2)ccc1OC(F)F,inactive: 1.25%
25,CCOc1ccc(C)cc1CN(CCCl)CCCl,inactive: 3.32%

row,SMILES,activity (quench increase)
1,O=C1CCN(Cc2ccccc2)CC1,inactive: 0.824%
2,CC(C)(C)n1nnnc1C(c1ccccc1)N1CCC(n2c(=O)[nH]c3ccccc32)CC1 (stereo not drawn),inactive: 0.271%
3,CCOC(=O)N1CCC(Nc2ccc(F)cc2)CC1,inactive: -2.08%
4,CCCCn1nnnc1C(c1cc2ccccc2o1)N1CCC(n2c(=O)[nH]c3ccccc32)CC1 (stereo not drawn),inactive: -0.497%
5,O=P1(N(CCCl)CCCl)SCCCS1,inactive: -2.7%
6,CCCCOc1ccc(C(=O)NCC2(N3CCOCC3)CCCCC2)cc1,inactive: -1.9%
7,O=C(NCC1(N2CCCCC2)CCCCC1)c1ccc(F)cc1,inactive: -2.94%
8,O=C(NCC1(N2CCCCC2)CCCCC1)c1cccc(C(F)(F)F)c1,inactive: -2.45%
9,CN1CCN(CCOC(=O)C(O)(c2ccccc2)c2ccccc2)CC1,inactive: -1.24%
10,COc1ccc(NC2CCN(C(=O)OC(C)(C)C)CC2)cc1,inactive: -0.053%
11,CC(C)c1ccc(C(=O)NCC2(N3CCOCC3)CCCCC2)cc1,inactive: 4.59%
12,CCCCn1nnnc1C(c1cccc2ccccc12)N1CCC(n2c(=O)[nH]c3ccccc32)CC1 (stereo not drawn),inactive: -1.12%
13,COc1cc(C(=O)NCC2(N3CCCCC3)CCCCC2)ccc1OC(F)F,inactive: 0.825%
14,O=C(NCC1(N2CCCCC2)CCCCC1)c1ccc(OC(F)F)cc1,inactive: -0.181%
15,CC(C)(C)n1nnnc1C(c1ccccc1OC(F)(F)F)N1CCC(n2c(=O)[nH]c3ccccc32)CC1 (stereo not drawn),inactive: -2.9%
16,O=C(NCC1(N2CCCCC2)CCCCC1)c1cccc([N+](=O)[O-])c1,inactive: -1.06%
17,CSc1ccc(C(=O)NCC2(N3CCOCC3)CCCCC2)cc1,inactive: 0.167%
18,O=c1[nH]c2ccccc2n1C1CCN(C(c2ccccc2OC(F)(F)F)c2nnnn2C2CCCC2)CC1 (stereo not drawn),inactive: -1.97%
19,CCN1CCC(Nc2ccc(Cl)cc2)CC1,inactive: -1.91%
20,CN1CCC(Nc2cccc(F)c2)CC1,inactive: 0.071%
21,O=C(NCC1(N2CCCCC2)CCCCC1)c1cncc(Br)c1,inactive: -4.72%
22,CCCOc1ccc(C(=O)NCC2(N(C)C)CCCCC2)cc1OC,inactive: -4.22%
23,Cc1ccc(C(=O)NCC2(N(C)C)CCCCC2)o1,inactive: 0.534%
24,COc1ccc(C(c2nnnn2C2CCCC2)N2CCC(n3c(=O)[nH]c4ccccc43)CC2)cc1 (stereo not drawn),inactive: 0.852%
25,CN(C)c1cccc(C(=O)NCC2(N3CCCCC3)CCCCC2)c1,inactive: -0.693%

row,SMILES,activity (quench increase)
1,COc1ccc(CN(CCCl)CCCl)cc1Cl,inactive: -3.29%
2,CC(C)c1ccc(NC2CCN(C(=O)OC(C)(C)C)CC2)cc1,inactive: 6.05%
3,CCCCn1nnnc1C(c1ccnc2ccccc12)N1CCC(n2c(=O)[nH]c3ccccc32)CC1 (stereo not drawn),inactive: -1.54%
4,CCC(c1nnnn1C(C)(C)C)N1CCC(n2c(=O)[nH]c3ccccc32)CC1 (stereo not drawn),inactive: 1%
5,O=C(NCC1(N2CCOCC2)CCCCC1)c1cc(F)c(F)cc1Cl,inactive: 4.27%
6,COc1cc(OC)c(C(=O)NCC2(N(C)C)CCCCC2)cc1OC,inactive: -0.532%
7,CCOC(=O)N1CCC(Nc2ccc(C)cc2)CC1,inactive: -0.106%
8,COc1cccc(C(c2nnnn2C(C)(C)C)N2CCC(n3c(=O)[nH]c4ccccc43)CC2)c1OC (stereo not drawn),inactive: 1.65%
9,CCCCn1nnnc1C(c1cccc(OC)c1OC)N1CCC(n2c(=O)[nH]c3ccccc32)CC1 (stereo not drawn),inactive: 1.93%
10,O=c1[nH]c2ccccc2n1C1CCN(C(c2cccs2)c2nnnn2C2CCCC2)CC1 (stereo not drawn),inactive: -0.398%
11,O=C(NCC1(N2CCOCC2)CCCCC1)c1cc(Br)ccc1Cl,inactive: -2.26%
12,COc1cc(C(=O)NCC2(N3CCOCC3)CCCCC2)cc(OC)c1C,inactive: 4.09%
13,CCCCn1nnnc1C(c1ccccc1)N1CCC(n2c(=O)[nH]c3ccccc32)CC1 (stereo not drawn),inactive: -0.486%
14,O=c1[nH]c2ccccc2n1C1CCN(C(c2ccnc3ccccc23)c2nnnn2C2CCCC2)CC1 (stereo not drawn),inactive: 2.64%
15,COc1ccc(C(=O)NCC2(N3CCOCC3)CCCCC2)cc1OC,inactive: 0.604%
16,O=c1[nH]c2ccccc2n1C1CCN(C(c2cccs2)c2nnnn2C2CCCCC2)CC1 (stereo not drawn),inactive: -3.32%
17,O=c1[nH]c2ccccc2n1C1CCN(C(c2ccccc2)c2nnnn2C2CCCC2)CC1 (stereo not drawn),inactive: 0.131%
18,CCCN1CCC(Nc2cc(OC)cc(OC)c2)CC1,inactive: 1.03%
19,Cc1cc(N(CCCl)CCCl)ccc1C=O,inactive: 2.67%
20,C/C(N)=N\P(=O)(Oc1ccccc1)Oc1ccccc1,inactive: -0.017%
21,CN(C)C1(CNC(=O)c2cccc(C#N)c2)CCCCC1,inactive: 1.12%
22,CC(C)(C)n1nnnc1C(c1cccc2ccccc12)N1CCC(n2c(=O)[nH]c3ccccc32)CC1 (stereo not drawn),inactive: -1.98%
23,CC(C)(C)OC(=O)N1CCC(N(C(=O)c2ccccc2)c2ccc(Cl)cc2)CC1,inactive: -0.062%
24,N#Cc1ccc(C(=O)NCC2(N3CCCCC3)CCCCC2)cc1,inactive: -2.57%
25,COc1ccc(C(c2nnnn2C2CCCCC2)N2CCC(n3c(=O)[nH]c4ccccc43)CC2)cc1 (stereo not drawn),inactive: 2.73%

row,SMILES,activity (quench increase)
1,CC(C)(C)n1nnnc1C(c1ccnc2ccccc12)N1CCC(n2c(=O)[nH]c3ccccc32)CC1 (stereo not drawn),inactive: 4.5%
2,Cc1ccccc1NC1(C#N)CCN(Cc2ccccc2)CC1,inactive: 3.71%
3,CN(C)c1ccc(C(=O)NCC2(N3CCCCC3)CCCCC2)cc1,inactive: -4.43%
4,Cn1c(=O)[nH]cc(N(CCCl)CCCl)c1=O,inactive: 1.67%
5,O=C(NCC1(N2CCCCC2)CCCCC1)c1ccco1,inactive: 1.66%
6,COc1cc(OC)cc(C(=O)NCC2(N3CCCCC3)CCCCC2)c1,inactive: 0.902%
7,O=c1[nH]c2ccccc2n1C1CCN(C(c2ccnc3ccccc23)c2nnnn2C2CCCCC2)CC1 (stereo not drawn),inactive: -0.676%
8,CCC(c1nnnn1C1CCCCC1)N1CCC(n2c(=O)[nH]c3ccccc32)CC1 (stereo not drawn),inactive: 0.132%
9,COc1cccc(C(c2nnnn2C2CCCCC2)N2CCC(n3c(=O)[nH]c4ccccc43)CC2)c1OC (stereo not drawn),inactive: -1.74%
10,CC(=O)N(c1ccccc1)C1CCNCC1,inactive: 2.24%
11,Cc1ccc(NC2(C#N)CCN(Cc3ccccc3)CC2)cc1,inactive: -7.16%
12,Fc1ccccc1NC1CCN(Cc2ccccc2)CC1,inactive: -0.615%
13,Cc1ccc(C(=O)NCC2(N3CCCCC3)CCCCC2)o1,inactive: 0.384%
14,COc1cc(OC)cc(C(=O)NCC2(N3CCOCC3)CCCCC2)c1,inactive: -0.959%
15,COc1cccc(C(c2nnnn2C2CCCC2)N2CCC(n3c(=O)[nH]c4ccccc43)CC2)c1OC (stereo not drawn),inactive: 0.363%
16,COc1cccc(C(=O)N(c2cc(C)cc(C)c2)C2CCN(C(=O)OC(C)(C)C)CC2)c1,inactive: 0.032%
17,CN1CCC(Nc2ccc(Cl)cc2)CC1,inactive: 0.154%
18,CN1CCC(Nc2ccc(F)c(Cl)c2)CC1,inactive: -1.8%
19,O=c1[nH]c2ccccc2n1C1CCN(C(c2cc3ccccc3o2)c2nnnn2C2CCCC2)CC1 (stereo not drawn),inactive: -2.14%
20,CCCOc1ccc(C(=O)NCC2(N(C)C)CCCCC2)cc1,inactive: -2.23%
21,O=C(O)C1(Nc2ccccc2)CCN(Cc2ccccc2)CC1,inactive: -0.355%
22,NN(c1ccccc1)C1CCN(CCc2ccccc2)CC1,inactive: -4.79%
23,CC(C)(C)OC(=O)N1CCC(Nc2ccccc2)CC1,inactive: 0.495%
